Legend:
[1] = tested on: MDA-MB-468 cells in co-culture with SK-BR-3; test: Bystander killing effect in co-culture of SK-BR-3 and MDA-MB-468; assay type: cell-based; conditions: co-culture SK-BR-3:MDA-MB-468-Lucia-GFP 4:1, 120 h; GFP fluorescence and luciferase luminescence
Experimental: 3) The cell mixture was prepared, wherein SKBR3: MDA-MB-468-Lucia-GFP=4:1, 5 ml.
Cell plating: 1*10^4 cells/well, 100 μl/well
Test samples: Three final concentrations are prepared from dilution with the cell medium: 50, 10 and 1 nM.
5) Incubate in a 5% CO2 incubator at 37° C. for 120 h.
(1) washed by PBS to remove dead cells, and detected by Cytation3 plate reader;
(2) Biyuntian luciferase reporter gene assay kit: lysed in 37° C. incubator for 10 min using 100 μl lysis buffer. Centrifuged at 2000 rpm for 5 minutes. 100 μl supernatant was taken. 100 μl substrate was added. The chemiluminescence was detected by microplate reader (gain: 200).
Two methods (GFP fluorescence counting and luciferase substrate luminescence method) were used for determination of bystander killing effects (FIG. 4a, 4b and FIG. 5).

[2] = tested on: JIMT-1 human breast cancer cells (HER2 medium); test: JIMT-1 human breast cancer xenograft model; assay type: in vivo; conditions: JIMT-1 CDX, SCID Beige mice, 5 mg/kg intravenously, FIG. 6
Experimental: 5×10^6 JIMT-1 human breast cancer cells (HER2 medium) were inoculated subcutaneously in the right flank in SCID Beige mice. After 7 days, when tumor volume reached 142 mm^3 on average, the tumor bearing mice were assigned and administrated intravenously of LC1184(8) and other five different conjugates at 5 mg/kg. The tumor volume was measured twice weekly with calipers. […] The conjugate of the present invention achieves great efficacy in lower DAR.

[3] = tested on: Capan-1 human pancreatic cancer cells (HER2 low); test: Capan-1 human pancreatic cancer xenograft model (1); assay type: in vivo; conditions: Capan-1 CDX, BALB/c nude mice, 5 mg/kg intravenously, FIG. 7
Experimental: 5×10^6 Capan-1 human pancreatic cancer cells (HER2 low) were inoculated subcutaneously in the right flank in BALB/c nude mice to generate xenograft model. After 8 days, when tumor volume reached 178 mm^3 on average, the tumor bearing mice were administrated intravenously of LC1184(8) and other five different conjugates at 5 mg/kg. The tumor volume was measured twice weekly with calipers.

[4] = patients; cited from earlier work

Row | Substance | bystander killing effect (in words) [1] | efficacy on tumor volume, comparison between conjugates [2] | efficacy on tumor volume, comparison between conjugates [3] | interstitial lung disease caused [4]
1 | LC302-2-4(4) | outstanding bystander killing effects | better efficacy than LC1184(8) | comparable efficacy to LC1184(8) | 
2 | Enhertu |  |  |  | more than 10%

— patent US11999748B2, “Exatecan derivatives, linker-payloads, and conjugates and thereof” (priority 2021, dated 2024)
